Experimental data as given in patent US20120114590A1 (priority 2005, published 2012).

Test system: EMCV
Assay: EMCV antiviral assay (MTT dye uptake) in HepG2 cells
Type: cell-based, encephalomyocarditis virus
Conditions: cytokine 24 hours before EMCV challenge

For “IFN-β: interferon beta (PBL Biomedical) [reference compound]”, the “EC50 (antiviral activity, OD570)” value was 0.46 ng/mL.
